Biological target: Coagulation factor X (Homo sapiens, UniProt P00742)
Experiment: In vitro inhibition of Coagulation factor X

Protein sequences, listed by entry. Tags and fused reporters are not part of them. Residues count along the entry.
UniProt P00742, 41-179 limits assumed: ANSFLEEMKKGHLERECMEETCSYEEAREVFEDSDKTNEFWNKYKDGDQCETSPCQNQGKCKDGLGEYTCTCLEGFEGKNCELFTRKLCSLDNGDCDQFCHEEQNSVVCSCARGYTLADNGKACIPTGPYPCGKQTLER
UniProt P00742, 235-488 limits assumed: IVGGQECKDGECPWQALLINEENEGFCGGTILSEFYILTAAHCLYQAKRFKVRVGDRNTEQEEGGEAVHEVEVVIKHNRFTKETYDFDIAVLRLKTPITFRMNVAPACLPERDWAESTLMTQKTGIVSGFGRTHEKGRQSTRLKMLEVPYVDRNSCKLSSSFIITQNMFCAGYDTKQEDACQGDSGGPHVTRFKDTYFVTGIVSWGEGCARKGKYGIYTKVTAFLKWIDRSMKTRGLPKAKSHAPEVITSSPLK

- Ki: 1400 nM
Compound: N=C(N)c1ccc(CCC(CC(=O)O)c2cccc(C(=N)N)c2)cc1 (stereo unspecified)
